Experimental data as given in patent USRE30451E, “Novel process for producing antibiotics bleomycin” (priority 1969, dated 1980).

Details: tumour-inoculated ICR/JCL mice, intraperitoneally once a day for 10 days, doses 25 mg/kg to 0.19 mg/kg, Behres-Karber's method, observed up to 50 days

With `Cc1c(N)nc([C@H](CC(N)=O)NC[C@H](N)C(N)=O)nc1C(=O)N[C@H](C(=O)N[C@H](C)[C@@H](O)[C@H](C)C(=O)N[C@H](C(=O)NCCc1nc(-c2nc(C(=O)NCCC[S+](C)C)cs2)cs1)[C@@H](C)O)[C@@H](O[C@@H]1O[C@@H](CO)[C@@H](O)[C@H](O)[C@@H]1O[C@H]1O[C@H](CO)[C@@H](O)[C@H](OC(N)=O)[C@@H]1O)c1c[nH]cn1.[Br-]` [Compound 1, Bleomycin A2, reference compound] the LD50 was 9.4.
